Protein sequences, listed by entry. Tags and fused reporters are not part of them.
UniProt P30536, whole entry: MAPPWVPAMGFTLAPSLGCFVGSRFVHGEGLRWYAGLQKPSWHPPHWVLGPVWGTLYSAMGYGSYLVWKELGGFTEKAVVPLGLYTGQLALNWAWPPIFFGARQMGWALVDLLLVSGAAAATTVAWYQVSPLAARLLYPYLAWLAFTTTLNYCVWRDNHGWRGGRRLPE

In publication PMC10142799, “Synthesis, In Silico and In Vitro Characterization of Novel N,N-Substituted Pyrazolopyrimidine Acetamide Derivatives for the 18KDa Translocator Protein (TSPO)” (Pharmaceuticals, 2023):

Target: T1, TSPO (Homo sapiens, UniProt P30536)
T1 construct: from tissue; host or cells: isolated human leukocytes (membranes)
Test: In vitro TSPO binding assay, competition with [3H]PK11195 in membrane of human leukocytes

CCC(C)N(C)C(=O)c1cc2ccccc2c(-c2ccccc2Cl)n1 (stereo not shown) [PK11195, reference compound]
Ki: 1.34 nM
